Like-named read-outs stand apart in the source and are kept apart here.
Key:
Assay in all cases: whole plant or invertebrate
[1] = test system: Myzus persicae (green peach aphid); details: foliar, 144 h, read-out: activity (mortality)
[2] = test system: Tetranychus urticae (two-spotted spider mite); details: foliar, 192 h, read-out: activity (egg, larval and adult mortality)
[3] = test system: Myzus persicae (green peach aphid); details: in Brassica oleracea, 144 h, read-out: activity against Myzus persicae (mortality)
[4] = test system: Myzus persicae (green peach aphid); details: 144 h, read-out: activity (mortality)
[5] = test system: Thrips tabaci (onion thrips); details: foliar, 144 h, read-out: activity (mortality)
[6] = test system: Myzus persicae (green peach aphid); details: soil, 168 h, read-out: activity (mortality)
[7] = test system: Nilaparvata lugens (brown rice planthopper); details: in Oryza sativa, read-out: activity (mortality, growth regulation, effects on F1 generation)
[8] = test system: Aphis craccivora (cowpea aphid); details: in Phaseolus vulgaris, 120 h, read-out: activity (mortality)

Structure (SMILES) | mortality at 400 ppm [1] | mortality at 400 ppm [2] | mortality at 200 ppm [3] | mortality at 400 ppm [4] | mortality at 400 ppm [5] | mortality at 25 ppm [6] | mortality at 200 ppm [7] | mortality at 200 ppm [8]
COc1cc(C)cc(C)c1C1C(=O)N2CCN(OC)CCN2C1=O [Compound P2.12] | > 80% | > 80% | ≥ 80% |  |  |  |  | 
CCc1cc(C)cc(CC)c1-c1c(OC(=O)C(C)(C)C)n2n(c1=O)CCN(OC)CC2 [Compound P1.19] | > 80% |  |  |  |  |  |  | 
CCOC(=O)Oc1c(-c2c(C)ccc(-c3ccc(F)cc3)c2C)c(=O)n2n1CCN(OC)CC2 [Compound P1.17] | > 80% |  | ≥ 80% | > 80% | > 80% |  |  | 
CON1CCN2C(=O)C(c3c(C)cc(Cl)cc3C)C(=O)N2CC1 [Compound P2.2, 8-(4-Chloro-2,6-dimethyl-phenyl)-3-methoxy-tetrahydro-pyrazolo[1,2-a][1,2,5]triazepine-7,9-dione] | > 80% | > 80% | ≥ 80% | > 80% |  | > 80% | > 80% | 
CON1CCN2C(=O)C(c3c(C)cc(Br)cc3C)C(=O)N2CC1 [Compound P2.9] | > 80% | > 80% |  |  |  | > 80% | > 80% | 
C#Cc1cc(C)c(C2C(=O)N3CCN(OC)CCN3C2=O)c(C)c1 [Compound P2.8] | > 80% |  |  |  | > 80% |  |  | 
CCOC(=O)Oc1c(-c2c(C)cc(C)cc2CC)c(=O)n2n1CCN(OC)CC2 [Compound P1.14] | > 80% | > 80% | ≥ 80% | > 80% |  |  |  | 
CCOC(=O)Oc1c(-c2c(C)cc(Cl)cc2C)c(=O)n2n1CCN(OC)CC2 [Compound P1.3] | > 80% | > 80% | ≥ 80% | > 80% |  |  | > 80% | 
CON1CCN2C(=O)C(c3c(C)cc(C)cc3Br)C(=O)N2CC1 [Compound P2.15] | > 80% | > 80% | ≥ 80% | > 80% |  |  |  | 
CON1CCn2c(OC(=O)C(C)(C)C)c(-c3c(C)cc(C)cc3C)c(=O)n2CC1 [Compound P1.1, 2,2-Dimethyl-propionic acid 3-methoxy-9-oxo-8-(2,4,6-trimethyl-phenyl)-2,3,4,5-tetrahydro-1H,9H-pyrazolo[1,2-a][1,2,5]triazepin-7-yl ester] | > 80% | > 80% |  | > 80% | > 80% |  |  | 
CCOC(=O)Oc1c(-c2c(C)cc(C)cc2OC)c(=O)n2n1CCN(OC)CC2 [Compound P1.9] | > 80% |  | ≥ 80% |  |  | > 80% | > 80% | > 80%
CCOC(=O)Oc1c(-c2c(C)cc(Cl)cc2Br)c(=O)n2n1CCN(OC)CC2 [Compound P1.12] | > 80% |  | ≥ 80% |  |  |  |  | 
C=Cc1cc(C)cc(C)c1C1C(=O)N2CCN(OC)CCN2C1=O [Compound P2.13] | > 80% |  |  |  |  |  |  | 
CON1CCN2C(=O)C(c3cc(C)ccc3C)C(=O)N2CC1 [Compound P2.4, 8-(2,5-Dimethyl-phenyl)-3-methoxy-tetrahydro-pyrazolo[1,2-a][1,2,5]triazepine-7,9-dione] |  |  |  | > 80% |  |  |  | 
CCOC(=O)Oc1c(-c2cc(C)ccc2C)c(=O)n2n1CCN(OC)CC2 [Compound P1.4] |  | > 80% | ≥ 80% |  |  |  |  | 
CCOC(=O)Oc1c(-c2c(C)cc(Cl)cc2OC)c(=O)n2n1CCN(OC)CC2 [Compound P1.6] | > 80% | > 80% |  | > 80% |  |  |  | 

Structure (SMILES) | mortality at 400 ppm [1] | mortality at 400 ppm [2] | mortality at 200 ppm [3] | mortality at 400 ppm [4] | mortality at 400 ppm [5] | mortality at 25 ppm [6] | mortality at 200 ppm [7] | mortality at 200 ppm [8]
CCOC(=O)Oc1c(-c2c(CC)cc(C)cc2CC)c(=O)n2n1CCN(OC)CC2 [Compound P1.18] |  | > 80% |  | > 80% |  |  |  | 
CON1CCN2C(=O)C(c3c(Cl)cc(C)cc3Br)C(=O)N2CC1 [Compound P2.10] | > 80% |  | ≥ 80% | > 80% |  |  |  | 
CCOC(=O)Oc1c(-c2cc(-c3ccc(Cl)cc3)ccc2C)c(=O)n2n1CCN(OC)CC2 [Compound P1.7] | > 80% | > 80% |  |  |  |  |  | 
CCOC(=O)Oc1c(-c2c(C)cc(Br)cc2C)c(=O)n2n1CCN(OC)CC2 [Compound P1.10] | > 80% |  | ≥ 80% | > 80% |  |  | > 80% | > 80%
CCOC(=O)Oc1c(-c2c(C)cc(C)cc2Br)c(=O)n2n1CCN(OC)CC2 [Compound P1.15] | > 80% | > 80% | ≥ 80% | > 80% |  |  |  | 
C=Cc1cc(C)cc(C)c1-c1c(OC(=O)OCC)n2n(c1=O)CCN(OC)CC2 [Compound P1.13] | > 80% |  | ≥ 80% |  |  |  |  | 
CON1CCN2C(=O)C(c3c(C)cc(C)cc3C)C(=O)N2CC1 [Compound P2.1, 3-Methoxy-8-(2,4,6-trimethyl-phenyl)-tetrahydro-pyrazolo[1,2-a][1,2,5]triazepine-7,9-dione] | > 80% | > 80% | ≥ 80% | > 80% | > 80% | > 80% | > 80% | > 80%
CCOC(=O)Oc1c(-c2c(Cl)cc(C)cc2Br)c(=O)n2n1CCN(OC)CC2 [Compound P1.11] |  |  | ≥ 80% | > 80% |  |  |  | 
CCOC(=O)Oc1c(-c2c(C)cc(C)cc2C)c(=O)n2n1CCN(OC)CC2 [Compound P1.2, Carbonic acid ethyl ester 3-methoxy-9-oxo-8-(2,4,6-trimethyl-phenyl)-2,3,4,5-tetrahydro-1H,9H-pyrazolo[1,2-a][1,2,5]triazepin-7-yl ester] | > 80% | > 80% | ≥ 80% | > 80% | > 80% | > 80% | > 80% | 
CCc1cc(C)cc(C)c1C1C(=O)N2CCN(OC)CCN2C1=O [Compound P2.14, 8-(2-Ethyl-4,6-dimethyl-phenyl)-3-methoxy-tetrahydro-pyrazolo[1,2-a][1,2,5]triazepine-7,9-dione] | > 80% | > 80% | ≥ 80% | > 80% |  |  |  | 
C#Cc1cc(C)cc(C)c1-c1c(OC(=O)OCC)n2n(c1=O)CCN(OC)CC2 [Compound P1.5] | > 80% | > 80% |  | > 80% |  |  |  | 
CON1CCN2C(=O)C(c3c(C)ccc(-c4ccc(F)cc4)c3C)C(=O)N2CC1 [Compound P2.17] | > 80% |  | ≥ 80% | > 80% |  |  |  | 
C#Cc1cc(C)cc(C)c1C1C(=O)N2CCN(OC)CCN2C1=O [Compound P2.5] | > 80% |  | ≥ 80% | > 80% |  |  |  | 
C#Cc1cc(C)c(-c2c(OC(=O)OCC)n3n(c2=O)CCN(OC)CC3)c(C)c1 [Compound P1.8] | > 80% | > 80% |  |  |  |  |  | 
CON1CCN2C(=O)C(c3c(C)cc(Cl)cc3Br)C(=O)N2CC1 [Compound P2.11] | > 80% |  | ≥ 80% | > 80% |  |  |  | 

— patent publication US9282743B2, “Chemical compounds” (Syngenta Participations AG, priority 2011, dated 2016)
